According to patent US6750212B2, “Photochemotherapeutic compositions” (PhotoCure AS, priority 1997, dated 2004):

Test: Oedema after lamp PDT of WiDr tumours in nude mice
Type: in vivo, Balb/c nu/nu nude mice
Settings: Example 5.3; high dose A1PcS4 5 mg/kg i.v.
Protocol: The ethanol was used as the control treatment since the ALA butyl ester formulation contained approx. 2% of ethanol. Mice were irradiated one hour after injection and responses of the tumours were evaluated as regression/regrowth time according to Example 5.1.

## Aluminium phthalocyanine tetra-sulfonate [A1PcS4]
  oedema: development of a large oedema
